AlphaSeq binding of Ab-14 heavy chain variants to a spike HR2 peptide

Data: MIT Lincoln Laboratory AlphaSeq set, Engelhart et al. 2022, doi:10.1038/s41597-022-01779-4, as distributed in FLAb.

The target is the same throughout: PDVDLGDISGINAS, from the HR2 region of SARS-CoV-2 spike.

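The starting antibody came from a phage panning campaign against this peptide. In library AAYL49, one, two or three CDR residues were substituted; doubles and triples were drawn at random. The scFvs were displayed on barcoded MATa yeast, the peptide on MATalpha yeast. After mating in shaken culture at 30 °C for 16 h, diploids were selected and their barcode pairs sequenced. Read counts were normalised to the haploid input and turned into Kd by a linear fit to BCL2-family pairs of known affinity, for each replicate. Mating was done three times.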

The variants keep the light chain, the linker and the frameworks of Ab-14 (scFv order VH, three GGGGS repeats, VL).
VH: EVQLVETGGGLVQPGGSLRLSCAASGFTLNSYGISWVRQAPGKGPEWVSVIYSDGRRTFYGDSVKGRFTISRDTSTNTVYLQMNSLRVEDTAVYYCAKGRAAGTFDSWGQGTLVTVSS
VL: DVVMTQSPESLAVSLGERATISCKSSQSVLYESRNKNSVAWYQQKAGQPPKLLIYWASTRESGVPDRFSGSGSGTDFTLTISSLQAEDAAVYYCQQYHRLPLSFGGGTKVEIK

Changes read parent residue, position, new residue, counted from the first residue of the VH shown. Every variant below is changed at D62 of the VH (sequential numbering). The read-out is the apparent dissociation constant on a log10 scale (nM): the lower, the stronger. Averages over replicates are reported, and they cover detected replicates only. "nd" marks a missing value. The strain was present, yet no cells mated with the target were sequenced in any replicate, which points to weak or no binding. Nonspecific signal, from three strains lacking the peptide, appeared in 15% of pairings of library AAYL49, centred on 4.06 (5% of these signals below 2.83); values are not corrected for it. The control count says in how many pairings with the empty strains this scFv gave a signal. Parent in this assay: reference entry 0.65, copy in this library 4.11 (one replicate of three).

The variant R57G D62M K65V showed nd (0 of 3 replicates; controls 0 of 9). The variant R56T D62R K65R gave 2.06 (3 of 3 replicates; controls 1 of 9). With D62M A101R the result was 3.58 (1 of 3 replicates; controls 1 of 9). The variant S35H T58P D62G gave nd (0 of 3 replicates; controls 0 of 9). For F59M D62M, the assay gave nd (0 of 3 replicates; controls 0 of 9). The variant D62S G103W gave 1.25 (3 of 3 replicates; controls 0 of 9).

With Y52K D62Y G103L the result was nd (0 of 3 replicates; controls 1 of 9). The variant Y60E D62C showed 4.99 (1 of 3 replicates; controls 2 of 9). The variant Y52S R57V D62S gave 5.35 (2 of 3 replicates; controls 8 of 9). With S35A D62H V64H the result was nd (0 of 3 replicates; controls 0 of 9). The variant I34P D62L G99C showed nd (0 of 3 replicates; controls 0 of 9). The variant G26M D62E G103R gave nd (0 of 3 replicates; controls 0 of 9).

The variant G55Q D62V S63I showed nd (0 of 3 replicates; controls 1 of 9). The variant G33Q Y60S D62F gave nd (0 of 3 replicates; controls 0 of 9). The variant F59W D62G S63E showed 3.83 (2 of 3 replicates; controls 1 of 9). The variant N30I D62N F105I gave 5.02 (1 of 3 replicates; controls 1 of 9). With G26F Y60P D62A the result was nd (0 of 3 replicates; controls 0 of 9). With D62V S63W R100W the result was nd (0 of 3 replicates; controls 3 of 9).

The variant D62R S63D G103K gave 3.50 (1 of 3 replicates; controls 0 of 9). The variant S35F D62T G99D showed 2.39 (1 of 3 replicates; controls 0 of 9). The variant D54H D62L D106Y gave nd (0 of 3 replicates; controls 0 of 9). The variant I34W G61A D62C gave 3.81 (1 of 3 replicates; controls 2 of 9). The variant S53P F59T D62T showed 4.41 (2 of 3 replicates; controls 1 of 9). With D62R T104E S107R the result was nd (0 of 3 replicates; controls 2 of 9).

With F27S D62K D106E the result was 4.29 (3 of 3 replicates; controls 2 of 9). The variant N30S D62E V64D gave nd (0 of 3 replicates; controls 0 of 9). The variant N30F Y60V D62R gave nd (0 of 3 replicates; controls 0 of 9). With D62Q A102C D106W the result was 3.21 (3 of 3 replicates; controls 0 of 9). For L29R Y60Q D62H, the assay gave nd (0 of 3 replicates; controls 1 of 9). For F59E D62V S107R, the assay gave 2.82 (3 of 3 replicates; controls 0 of 9).

For I34K D62S S107E, the assay gave nd (0 of 3 replicates; controls 1 of 9). The variant D62W K65L S107E gave 2.76 (3 of 3 replicates; controls 1 of 9). With T28Q D62Q the result was nd (0 of 3 replicates; controls 0 of 9). The variant V50A D62I R100E gave nd (0 of 3 replicates; controls 2 of 9). For Y60I D62L F105H, the assay gave 4.36 (2 of 3 replicates; controls 3 of 9). The variant Y60I D62T V64T gave 4.34 (2 of 3 replicates; controls 1 of 9).

The variant G55Y F59N D62Y gave 4.29 (1 of 3 replicates; controls 1 of 9). The variant R57C G61I D62S showed 4.20 (2 of 3 replicates; controls 4 of 9). For S31R D62K A101T, the assay gave 3.66 (1 of 3 replicates; controls 2 of 9). The variant I34G I51W D62K showed 3.88 (1 of 3 replicates; controls 3 of 9). The variant D62F G99M R100W gave nd (0 of 3 replicates; controls 2 of 9). For L29P N30E D62F, the assay gave nd (0 of 3 replicates; controls 0 of 9).

With G26C D62P A102M the result was 5.37 (2 of 3 replicates; controls 3 of 9). For Y32L Y60R D62A, the assay gave nd (0 of 3 replicates; controls 0 of 9). For G33D S53G D62P, the assay gave 4.33 (1 of 3 replicates; controls 0 of 9). For S35K G55L D62R, the assay gave 3.17 (2 of 3 replicates; controls 2 of 9).

The 6 strongest on average among those seen in every replicate, once more:

changes,"log10 Kd (nM), mean",detected,empty controls
D62S G103W,1.25,3/3,0/9
R56T D62R K65R,2.06,3/3,1/9
D62W K65L S107E,2.76,3/3,1/9
F59E D62V S107R,2.82,3/3,0/9
D62Q A102C D106W,3.21,3/3,0/9
F27S D62K D106E,4.29,3/3,2/9